Data as given in PubChem BioAssay AID1030 (National Center for Advancing Translational Sciences (NCATS), 2008).
Only a part is listed here, and it is no random draw. Results filed as inconclusive are left out. A call without a number means that no potency is given here. The source made the active and inactive calls. Calls come from the whole dose curve; as a rule, active = well fitted inhibition curve with a large enough effect (not every such curve was filed as active); inconclusive = small, poorly fitted or top-dose-only effect, or another doubt; inactive = no such curve, though single readings can be large or run the other way.
Potency is the fitted concentration of half-maximal effect.

Protein sequences, listed by entry. Tags and fused reporters are not part of them.
UniProt P00352, whole entry: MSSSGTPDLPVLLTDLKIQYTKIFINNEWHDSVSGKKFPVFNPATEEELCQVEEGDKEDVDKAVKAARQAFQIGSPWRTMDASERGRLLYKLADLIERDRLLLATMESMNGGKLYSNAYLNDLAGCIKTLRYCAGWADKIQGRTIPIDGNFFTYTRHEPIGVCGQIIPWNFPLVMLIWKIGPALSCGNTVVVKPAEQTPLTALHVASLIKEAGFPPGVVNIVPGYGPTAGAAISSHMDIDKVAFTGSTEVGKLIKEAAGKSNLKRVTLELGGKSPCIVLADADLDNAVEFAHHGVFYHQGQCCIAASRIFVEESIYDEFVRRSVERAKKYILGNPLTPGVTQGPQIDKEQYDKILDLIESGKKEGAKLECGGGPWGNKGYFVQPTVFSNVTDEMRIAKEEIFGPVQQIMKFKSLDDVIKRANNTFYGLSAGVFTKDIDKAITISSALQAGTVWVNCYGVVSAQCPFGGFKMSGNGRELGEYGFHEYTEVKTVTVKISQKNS

These molecules were tested against Aldehyde dehydrogenase 1A1 (Homo sapiens) (UniProt P00352) (assay: qHTS Assay for Inhibitors of Aldehyde Dehydrogenase 1 (ALDH1A1)). Settings: Purified ALDH1A1, NADH fluorescence, propionaldehyde substrate; series mostly up to 75.3 µM.
`COc1ccc(NC2CCN(C(=O)OC(C)(C)C)CC2)cc1` was tested, and the Potency was active: 8.91 µM. With `O=C(OC1CN2CCC1CC2)c1ccc([N+](=O)[O-])cc1` (stereo unspecified) the Potency was “inactive”. With `NC1CCCCC1.NP(=O)(O)N(CCCl)CCCl` the activity, negative = inhibition was inactive: 17.1% [at 13.5 µM]. For `N/C(=N\O)c1c(N)no[n+]1[O-]`, the Potency was “inactive”. With `ClP(Cl)(Cl)(Cl)Cl` the Potency was active: 2.51 µM. For `CCOC(=O)C(CC)C1=NC(C)(C)Cc2ccccc21.O=[N+]([O-])c1cc([N+](=O)[O-])c(O)c([N+](=O)[O-])c1` (stereo unspecified), the Potency was “inactive”.
